Measurements: ChEMBL document CHEMBL5620436, “Structure-Guided Design and Optimization of Covalent VHL-Targeted Sulfonyl Fluoride PROTACs” (J Med Chem, 2024)

Molecular target: von Hippel-Lindau disease tumor suppressor/Bromodomain-containing protein 4 (Homo sapiens, UniProt O60885+P40337)
Assay: PROTAC activity at HiBit tagged BRD4/VHL E3 ligase in human HEK293 cells assessed as induction of BRD4 degradation incubated for 5 hrs followed by compound washout and measured after 24 hrs in presence of VH032 by Western blot analysis
Assay type: cell-based

How did the Activity turn out when Cc1ncsc1-c1ccc(CNC(=O)[C@@H]2C[C@@H](O)CN2C(=O)[C@@H](NC(=O)COCCOCCOCCNC(=O)C[C@@H]2N=C(c3ccc(Cl)cc3)c3c(sc(C)c3C)-n3c(C)nnc32)C(C)(C)C)cc1 was run?
Its Activity is “Active”.

Activity calls are given as the source filed them. No cut-off for these calls is given here.
